The target in the assay is EGFR on tumor endothelial cells (tumor EC) isolated from xenografts in nude mice (mouse) (UniProt Q01279). Kind of assay: cell-based or functional assay.

On to EGF (R&D Systems) (ligand), for which the cell proliferation (MTT assay) of tumor EC at 20 ng/ml EGF is 2.5 fold.

(Values after US20110052570A1, “METHOD TO PROGNOSE RESPONSE TO ANTI-EGFR THERAPEUTICS” (CHILDREN'S MEDICAL CENTER CORPORATION, priority 2005, published 2011).)
